The list shows a part of the results, in another mix than the full data. The source made the active and inactive calls. How the calls were made is not given here.
Test: compounds altering viability of human ES cells (AID 493140);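 further: cells exposed to compounds for four days before counting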
Details: human embryonic stem cell survival screen; hits give high values

**Q.** For `C/C1=C2N=C(/C=C3N=C(/C(C)=C4\[N-][C@@](C)([C@@H]5N=C1[C@](C)(CCC(=O)NC[C@@H](C)OP(=O)([O-])O[C@H]1[C@@H](O)[C@@H](n6cnc7cc(C)c(C)cc76)O[C@@H]1CO)[C@H]5CC(N)=O)[C@@](C)(CC(N)=O)[C@@H]4CCC(N)=O)[C@@](C)(CC(N)=O)[C@@H]\3CCC(N)=O)C(C)(C)[C@@H]/2CCC(N)=O.[C-]#N.[Co+3]`, which survival is on record?
**A.** inactive: 14
